# Tests used:
# Protein sequences, listed by entry. Tags and fused reporters are not part of them. Residues count along the entry.
# UniProt Q04206, 19-306 limits assumed: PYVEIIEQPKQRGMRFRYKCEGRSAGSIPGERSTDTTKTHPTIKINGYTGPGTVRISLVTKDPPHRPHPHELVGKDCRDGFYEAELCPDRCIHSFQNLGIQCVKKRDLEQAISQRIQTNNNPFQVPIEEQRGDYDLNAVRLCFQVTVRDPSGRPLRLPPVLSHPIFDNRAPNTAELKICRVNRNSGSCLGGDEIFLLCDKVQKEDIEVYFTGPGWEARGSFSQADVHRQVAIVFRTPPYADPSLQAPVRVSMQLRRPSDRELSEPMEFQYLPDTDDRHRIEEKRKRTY
# p52 = biological target: T1, p52 (Homo sapiens, UniProt Q00653); experiment: DSE-FRET p52–DNA binding inhibition; type: biochemical; design: dose or concentration left out as unconfirmed
# T1 sequence (Q00653 1-454 limits assumed): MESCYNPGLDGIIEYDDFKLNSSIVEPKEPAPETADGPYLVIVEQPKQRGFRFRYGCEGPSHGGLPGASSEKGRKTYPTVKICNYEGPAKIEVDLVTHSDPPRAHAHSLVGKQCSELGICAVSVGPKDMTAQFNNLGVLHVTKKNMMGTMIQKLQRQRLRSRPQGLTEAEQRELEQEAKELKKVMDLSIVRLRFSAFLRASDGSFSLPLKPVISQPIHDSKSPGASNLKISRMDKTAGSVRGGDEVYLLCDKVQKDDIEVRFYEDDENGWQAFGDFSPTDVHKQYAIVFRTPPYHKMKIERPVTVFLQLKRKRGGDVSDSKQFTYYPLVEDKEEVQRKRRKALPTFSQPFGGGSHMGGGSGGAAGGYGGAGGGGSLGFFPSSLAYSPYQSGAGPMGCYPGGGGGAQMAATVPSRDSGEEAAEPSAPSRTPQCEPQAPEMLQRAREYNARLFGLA
# RelA = RelA (Homo sapiens, UniProt Q04206); experiment: DSE-FRET RelA–DNA binding inhibition; type: biochemical; design: dose or concentration left out as unconfirmed
compound,measurement,setting,value
COc1ccc(C[C@H]2NC[C@H](O)[C@H]2OC(C)=O)cc1 [Anisomycin],p52 HTS % Inhibition,"p52; HTS, NPDepo hits",1.6%
same,p52 Retest % Inhibition Run1,p52; Retest Run1,0.6%
same,p52 Retest % Inhibition Run2,p52; Retest Run2,1.8%
same,p52 Retest % Inhibition Avg.,p52; Retest average of Run1 and Run2,1.2%
same,Kinetic assay p52 Inhibition % ΔRFU(60 min-0 min),"p52; kinetic assay, ΔRFU 60 min-0 min",-0.041%
same,Kinetic assay RelA Inhibition % ΔRFU(60 min-0 min),RelA,-1.48%
same,RelA HTS % Inhibition,RelA,52.5%
same,RelA Retest % Inhibition Avg.,RelA,1.4%
same,RelA Retest % Inhibition Run1,RelA,0.565%
same,RelA Retest % Inhibition Run2,RelA,2.1%

# From paper PMC7734590, “Identification of a Selective RelA Inhibitor Based on DSE-FRET Screening Methods” (International Journal of Molecular Sciences, 2020)
